Source: publication PMC7902338 (Pharmaceutical Research, 2021)

What was measured:
[1] = mean ± SD
[2] = test system: cation transporters (OCTs, MATEs); settings: C57BL/6 wild-type mice, assuming average mouse organ volumes from literature
[3] = test system: murine P-glycoprotein (P-gp/ABCB1); settings: cited from earlier work
[4] = test system: human OCT2; settings: cited from earlier work
[5] = single oral or intravenous dose; cited from earlier work
[6] = C57BL/6 female mice, co-administration of unlabeled metoclopramide (5 mg/kg), 15 min

Row | SMILES | Percentage of unchanged [^11C]metoclopramide in liver ([1]; C57BL/6 female mice, baseline, 15 min after radiotracer injection) [%] | Percentage of unchanged [^11C]metoclopramide in liver ([1]; C57BL/6 female mice, cimetidine (150 mg/kg), 15 min) [%] | Percentage of unchanged [^11C]metoclopramide in liver [1, 6] [%] | Percentage of unchanged [^11C]metoclopramide in urine [1, 6] [%] | Percentage of unchanged [^11C]metoclopramide in liver ([1]; C57BL/6 female mice, sulpiride (25 mg/kg), 15 min) [%] | Percentage of unchanged [^11C]metoclopramide in liver ([1]; FVB male/female Slc22a1/2^(−/−) mice, 15 min) [%] | Percentage of unchanged [^11C]metoclopramide in liver ([1]; FVB male/female wild-type mice, 15 min) [%] | Maximum amount of radioactivity in the liver [2] | Substrate of murine P-gp [3] | Share of cellular uptake related to OCT2 activity ([4]; human OCT2 transfected cell line) [%] | Substrate of human OCT2 ([4]; in vitro) | Fraction of dose excreted in urine in the form of metabolites [5]
1 | CCN(CC)CCNC(=O)c1cc(Cl)c(N)cc1O[11CH3] [[^11C]metoclopramide] | 57 ± 4 | 96 ± 2 | 76 ± 4 | 43 ± 7 | 76 ± 7 | 74 ± 9 | 69 ± 6 | ~36 % of the injected dose | – | – | – | –
2 | CCN(CC)CCNC(=O)c1cc(Cl)c(N)cc1OC [metoclopramide] | – | – | – | – | – | – | – | – | weak substrate | 24 | substrate | up to 60%

Like-named read-outs stand apart in the source and are kept apart here.
